{
  "source": "patent US20030003050A1",
  "about": "(priority 2001, published 2003)",
  "tested_on": "B6μ, Heμ and CXμ mice",
  "assay": "tail-flick test",
  "format": "in vivo, mouse",
  "settings": "CXμ mice vs B6μ and Heμ littermates; 10 mg/kg intraperitoneal; 10 minutes after injection; p<0.05",
  "data": [
    {"smiles": "CN(C(=O)Cc1ccc(Cl)c(Cl)c1)[C@H]1CCCC[C@@H]1N1CCCC1.Cl", "values": [
      {"measurement": "latency of response to heat stimulus (drug-induced analgesia), tail-flick test", "result": "significantly shorter latency than the littermates"}
    ]}
  ]
}
